Reference: patent US4618612A (Medosan Industrie Biochimiche Riunite S.p.A., priority 1983, dated 1986)
Read-outs that look alike come from different tables or passages of the source.

Key:
[1] = tested on: gastric mucosa; assay: Gastric tolerance (ulcerogenic activity); format: in vivo, male Wistar rats; conditions: 4 days; for Mean Severity: scale 0-5; for Gastric Damage index: vehicle 8
Description: This was studied by conducting tests of ulcerogenic activity in male Wistar rats, weighing 180 g on the average, in groups of 10 animals each. Three doses of each substance were given, and one group of animals was treated with vehicle only in a volume of 10 ml/kg bodyweight. Each dose was given orally for four consecutive days; on the fifth day, the rats were killed and autopsied. The ulcerogenic effect was assessed according to the following scale:
(1) each hemorrhage point ≥1 mm was evaluated as 1 lesion
(2) hemorrhage points smaller than 1 mm were counted as follows:
(b) from 1 to 19:2 lesions
(c) from 1 to 29:3 lesions
(2) gastric mucosa irritation: 1
(3) hemorrahge points <1 mm: 2
(4) hemorrhage points between 1 and 3 mm: 3
(5) hemorrhage points >3 mm: 4
This scale was used to calculate the following gastric damage index: [formula]

[2] = tested on: rats; format: in vivo
[3] = tested on: mice; format: in vivo

1-Methyl-5-p-methylbenzoylpyrrol-2-acetate of 7-(3-oxypropyl)theophylline [(C)]
% incidence 10 ([1]; 50 mg/kg oral): 7 %/10
Gastric Damage index, second figure (after +; difference from vehicle) ([1]; 50 mg/kg oral): 2
Mean No. lesions ([1]; 50 mg/kg oral): 1
Mean Severity ([1]; 50 mg/kg oral): 2
Gastric Damage index ([1]; 50 mg/kg oral): 10
% incidence 10 ([1]; 100 mg/kg oral): 9 %/10
Gastric Damage index, second figure (after +; difference from vehicle) ([1]; 100 mg/kg oral): 6
Mean No. lesions ([1]; 100 mg/kg oral): 2
Mean Severity ([1]; 100 mg/kg oral): 3
Gastric Damage index ([1]; 100 mg/kg oral): 14
% incidence 10 ([1]; 200 mg/kg oral): 9 %/10
Gastric Damage index, second figure (after +; difference from vehicle) ([1]; 200 mg/kg oral): 7
Mean No. lesions ([1]; 200 mg/kg oral): 2
Mean Severity ([1]; 200 mg/kg oral): 4
Gastric Damage index ([1]; 200 mg/kg oral): 15
LD50 ([2]; I.P.): 920 mg/kg
LD50 ([2]; OS): 1,200 mg/kg
LD50 ([3]; I.P.): 1,000 mg/kg
LD50 ([3]; OS): 1,340 mg/kg
